This is one part of a sample in which hits are shown more often than they occur.
GIV-Gai inh – inhibitors of GIV GBA-motif binding to rat Galpha-i3; P08753; Galpha-i3/FITC-GIV peptide fluorescence polarization, 90 min; hits give low values; scaled: aluminum fluoride 0%, vehicle 100%; percent of control (FP), % (test concentration not listed); 0.42% of 210,000 active; AID 1224905;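 active = replicate mean at 85% of control or lower, very high polarization wells dropped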;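 also: wells of about 15 µL received 100 nL stock; the first replicate is given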
HCMV UL50-53 inh – cytomegalovirus nuclear egress complex inhibition | HTRF UL50-UL53 interaction, normalized percent inhibition | 0.15% of 190,000 active | inhibition, % (test concentration not listed); in the data active = inhibition above about 27%, passing the limit was not always enough
An asterisk follows results filed as active; x = no result given.

SMILES	GIV-Gai inh	HCMV UL50-53 inh
Oc1ccc2ccccc2c1/C=N/c1nccs1	100	108*
COc1ccc2nc(-n3nc(C)c4c3NC(=O)CC4c3cc(C)sc3C)sc2c1 (stereo not given)	101	x
Cc1ccc(CC23CN4CCN(CC(C4)C2=O)C3)c(C)c1	104	-22
CCOc1ccc(-c2c(C#N)c(N)nc(SCC#N)c2C#N)cc1	x	-11
COc1cc(-c2c(C#N)c(SCC#N)nc(N)c2C(=O)OC(C)C)cc(OC)c1OC	x	63*
CC(C)c1cc(C(=O)N2CC3(C)CC2CC(C)(C)C3)no1 (stereo not given)	108	3
COc1ccc(S(=O)(=O)N2CCOCC2)cc1-c1nnc2c3ccccc3c(C)nn12	106	54*
COc1ccc(S(N)(=O)=O)cc1-c1nnc2c3ccccc3c(C)nn12	110	x
O=C(Nc1ccc2c(c1)OCCO2)C1(c2ccccc2)CCOCC1	x	-5
Cc1cc(N2CCCC2)ccc1/C=C/C1=CCN(C)CC1	113	35
C=CCn1c(C)c(/C=C/C2=CCN(C)CC2)c2ccccc21	-11*	-66
CC1CCCN(c2nnc(NC(=O)NCc3ccccc3)s2)C1 (stereo not given)	104	-22
CCCN(CCC)C(=O)/C=C/c1cc(OC)c(OC)c(OC)c1	105	-33
COc1cc(/C=C/C(=O)/C=C/c2ccc(N(C)C)cc2)cc(OC)c1OC	-64*	x
O=S(=O)(c1ccc(N=C=S)cc1)N1CCOCC1	x	-24
O=c1n(Cc2cccc(C(F)(F)F)c2)nc2c(S(=O)(=O)N3CCc4ccccc4C3)cccn12	112	x
O=C(O)COCC(=O)Nc1ccc2c(c1)oc1ccccc12	104	x
O=C(O)CCC(=O)Nc1ccc2c(c1)oc1ccccc12	105	52*
CCOc1cc(S(=O)(=O)NCCOC)c(OCC)cc1C	103	-22
CCCN1CCc2c(sc(NC(=S)NC(=O)c3ccccc3)c2C#N)C1	-59*	x

The closing 3 compounds of the section before lead into the next:
SMILES	GIV-Gai inh	HCMV UL50-53 inh
O=C(O)CCC(=O)Nc1ccc2c(c1)oc1ccccc12	105	52*
CCOc1cc(S(=O)(=O)NCCOC)c(OCC)cc1C	103	-22
CCCN1CCc2c(sc(NC(=S)NC(=O)c3ccccc3)c2C#N)C1	-59*	x
CC(=O)N1CCc2c(sc(NC(=O)c3ccc(C#N)cc3)c2C#N)C1	x	-11
NNC(=O)c1oc2nc(-c3ccccc3)cc(-c3ccccc3)c2c1N	105	-68
COc1cccc(/C=N/NC(=O)c2oc3nc(-c4ccccc4)cc(-c4ccco4)c3c2N)c1	-54*	-32
CN(Cc1ccccc1)C(=O)CCc1nc2cccnc2n1Cc1ccccc1	101	x
COc1ccc(/C=C2\OC(=S)N(C)C2=O)cc1	103	x
COc1cc(/C=C2/OC(=S)N(C)C2=O)ccc1O	-73*	-64
Cc1cc(C)n(C)c(=O)c1C(=O)O	103	x
Cc1cc(=O)[nH]c(O)c1C(=O)O	93	65*
Cc1nc(-c2cc(S(=O)(=O)Nc3ccc(F)cc3Cl)c(C)s2)cs1	104	x
CCn1c(=O)c(=O)n(CCC(=O)NCc2ccccc2OC)c2cccnc21	103	-16
Cc1c(C#N)c2nc3ccccc3n2c(=O)/c1=C\Nc1cccc(NC(=O)c2ccccc2)c1	-67*	x
Cc1c(C#N)c2nc3ccccc3n2c(=O)/c1=C\Nn1cnnc1	118	x
CCS(=O)(=O)N(Cc1ccco1)Cc1nc(-c2cccs2)no1	100	-11
O=c1oc2ccccc2nc1/C=C(\O)c1ccccc1	46*	4
O=c1oc2ccc(Cl)cc2nc1/C=C(\O)c1ccco1	2.2*	-7
CC(C)(C)/C(O)=C/c1nc2ccccc2oc1=O	103	x
Cc1nc(C)c(/C(O)=C/c2nc3cc(Cl)ccc3oc2=O)o1	111	x
c1ccc(SCCNCc2ccccn2)cc1	x	-18
N#C/C(=C\c1[nH]c2ccccc2c1O)C(=N)N1CCOCC1	-18*	x
COc1ccc(N=C(N)/C(C#N)=C/c2[nH]c3ccccc3c2O)cc1	259	x

Brought forward from above: 2 entries, followed by the next part.
SMILES	GIV-Gai inh	HCMV UL50-53 inh
N#C/C(=C\c1[nH]c2ccccc2c1O)C(=N)N1CCOCC1	-18*	x
COc1ccc(N=C(N)/C(C#N)=C/c2[nH]c3ccccc3c2O)cc1	259	x
O=C(O)c1cc(Cl)c[nH]1	x	18
CC(=O)NCCSCc1c(F)cccc1Cl	104	-38
CCCCNc1cc(N2CCC(C)CC2)c2noc3c2c1C(=O)c1ccccc1-3	2.5*	-60
CCNc1cc(N2CCN(c3ccccc3)CC2)c2noc3c2c1C(=O)c1ccccc1-3	114	-2
CCNc1cc(N2CCC(C)CC2)c2noc3c2c1C(=O)c1ccccc1-3	139	-72
CN(C)CCNc1cc(N2CCOCC2)c2noc3c2c1C(=O)c1ccccc1-3	-68*	-73
CCNc1cc(N2CCCC2)c2noc3c2c1C(=O)c1ccccc1-3	201	x
CN(C)CCNc1cc(N2CCN(C(=O)c3ccco3)CC2)c2noc3c2c1C(=O)c1ccccc1-3	-31*	-132
O=C(CSc1ncn[nH]1)NC(c1ccccc1)c1ccccc1	103	-6
CC(C)(C)C(=O)Nc1ccc(C(=O)Oc2ccccc2)c(O)c1	103	-14
COc1ccc(-c2nnn(CN(C)Cc3sccc3C)n2)cc1OC	x	-30
Cc1cccc(CSc2nnc3n(CC(C)C)c(=O)c4cc(C)ccc4n23)c1	100	-4
CN1CCN(Cc2c(O)ccc3cc(-c4ccccc4)c(=O)oc23)CC1	111	x
CC1CCCN(Cc2c(O)ccc3cc(-c4nc5ccccc5[nH]4)c(=O)oc23)C1 (stereo not given)	-33*	-17

Screening data (PubChem BioAssay)
